Reference: patent US20190292189A1, “LIM KINASE INHIBITORS” (VIRONGY, LLC, priority 2016, published 2019)

Chains of the proteins cited; added tags and fusions are not shown. Residues count along the entry.
UniProt O75116, whole entry: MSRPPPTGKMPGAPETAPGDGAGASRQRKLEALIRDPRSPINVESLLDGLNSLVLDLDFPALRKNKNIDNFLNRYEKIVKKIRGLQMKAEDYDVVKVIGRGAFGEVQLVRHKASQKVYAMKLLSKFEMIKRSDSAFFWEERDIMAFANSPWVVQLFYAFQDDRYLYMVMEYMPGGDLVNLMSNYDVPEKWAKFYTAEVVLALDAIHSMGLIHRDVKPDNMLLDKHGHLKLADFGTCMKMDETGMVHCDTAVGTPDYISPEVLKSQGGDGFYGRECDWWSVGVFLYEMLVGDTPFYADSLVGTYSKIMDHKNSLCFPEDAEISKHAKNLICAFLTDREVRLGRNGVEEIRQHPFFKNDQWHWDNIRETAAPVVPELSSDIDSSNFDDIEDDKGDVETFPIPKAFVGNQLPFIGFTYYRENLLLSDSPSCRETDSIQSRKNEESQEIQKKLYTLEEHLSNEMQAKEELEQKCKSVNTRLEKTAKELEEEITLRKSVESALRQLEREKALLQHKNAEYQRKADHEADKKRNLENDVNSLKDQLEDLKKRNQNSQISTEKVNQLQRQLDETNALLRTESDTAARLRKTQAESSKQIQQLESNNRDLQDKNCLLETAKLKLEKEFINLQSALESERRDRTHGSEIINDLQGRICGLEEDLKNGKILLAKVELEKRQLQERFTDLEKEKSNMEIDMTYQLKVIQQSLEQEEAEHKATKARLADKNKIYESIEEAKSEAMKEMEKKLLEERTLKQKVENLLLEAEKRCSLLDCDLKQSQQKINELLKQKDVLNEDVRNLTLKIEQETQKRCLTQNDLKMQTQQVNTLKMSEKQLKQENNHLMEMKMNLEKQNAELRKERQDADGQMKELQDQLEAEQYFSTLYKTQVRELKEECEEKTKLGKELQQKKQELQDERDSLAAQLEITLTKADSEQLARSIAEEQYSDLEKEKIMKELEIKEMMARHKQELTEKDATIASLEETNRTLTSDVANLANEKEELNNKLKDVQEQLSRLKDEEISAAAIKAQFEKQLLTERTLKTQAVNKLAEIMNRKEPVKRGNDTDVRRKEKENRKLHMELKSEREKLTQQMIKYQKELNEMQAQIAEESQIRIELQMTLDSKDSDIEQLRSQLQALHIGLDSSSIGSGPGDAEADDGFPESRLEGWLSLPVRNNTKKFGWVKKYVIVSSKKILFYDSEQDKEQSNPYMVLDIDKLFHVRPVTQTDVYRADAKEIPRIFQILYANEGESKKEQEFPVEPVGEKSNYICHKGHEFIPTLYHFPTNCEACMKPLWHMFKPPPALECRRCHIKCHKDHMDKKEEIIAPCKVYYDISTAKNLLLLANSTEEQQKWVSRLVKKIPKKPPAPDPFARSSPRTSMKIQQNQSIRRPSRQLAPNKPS
UniProt P53667, 285-638 limits assumed: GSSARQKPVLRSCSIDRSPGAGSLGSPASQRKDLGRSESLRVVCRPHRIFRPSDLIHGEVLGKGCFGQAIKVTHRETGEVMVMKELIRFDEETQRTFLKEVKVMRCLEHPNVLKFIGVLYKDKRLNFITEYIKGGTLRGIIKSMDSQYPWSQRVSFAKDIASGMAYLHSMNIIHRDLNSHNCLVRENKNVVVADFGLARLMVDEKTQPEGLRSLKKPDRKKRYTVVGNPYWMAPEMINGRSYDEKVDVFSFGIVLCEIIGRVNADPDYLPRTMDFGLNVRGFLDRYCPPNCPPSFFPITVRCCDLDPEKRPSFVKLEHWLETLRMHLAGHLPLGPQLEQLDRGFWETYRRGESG

What was measured:
[1] = biological target: ROCK-II (Homo sapiens, UniProt O75116); assay: ROCK-II biochemical counter-screen; conditions: read-out: ROCK-II IC50
[2] = biological target: Limk1 (Homo sapiens, UniProt P53667); conditions: read-out: Limk1 IC50

COc1cccc(CNC(=O)Nc2ccc(-c3cn[nH]c3)cc2)c1
IC50 [1]: 2 nM
IC50 [2]: > 10000 nM
